Chains of the proteins cited; added tags and fusions are not shown. Lines headed by an entry give the natural chain unless they say otherwise; changes in a name come on top.
UniProt Q13547, whole entry: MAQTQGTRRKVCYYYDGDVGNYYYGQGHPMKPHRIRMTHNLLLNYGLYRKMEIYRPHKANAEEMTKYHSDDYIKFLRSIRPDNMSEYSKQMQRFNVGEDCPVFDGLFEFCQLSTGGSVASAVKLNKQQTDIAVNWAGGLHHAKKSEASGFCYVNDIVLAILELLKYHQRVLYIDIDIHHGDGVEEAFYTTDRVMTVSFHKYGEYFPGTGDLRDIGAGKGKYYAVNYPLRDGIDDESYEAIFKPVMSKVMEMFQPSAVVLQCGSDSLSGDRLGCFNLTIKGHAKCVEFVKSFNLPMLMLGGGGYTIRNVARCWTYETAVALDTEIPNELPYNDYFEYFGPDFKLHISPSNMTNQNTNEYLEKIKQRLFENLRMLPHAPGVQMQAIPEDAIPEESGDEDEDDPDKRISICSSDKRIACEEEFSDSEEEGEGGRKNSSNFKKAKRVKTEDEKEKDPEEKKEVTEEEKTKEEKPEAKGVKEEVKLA
UniProt Q9UBN7: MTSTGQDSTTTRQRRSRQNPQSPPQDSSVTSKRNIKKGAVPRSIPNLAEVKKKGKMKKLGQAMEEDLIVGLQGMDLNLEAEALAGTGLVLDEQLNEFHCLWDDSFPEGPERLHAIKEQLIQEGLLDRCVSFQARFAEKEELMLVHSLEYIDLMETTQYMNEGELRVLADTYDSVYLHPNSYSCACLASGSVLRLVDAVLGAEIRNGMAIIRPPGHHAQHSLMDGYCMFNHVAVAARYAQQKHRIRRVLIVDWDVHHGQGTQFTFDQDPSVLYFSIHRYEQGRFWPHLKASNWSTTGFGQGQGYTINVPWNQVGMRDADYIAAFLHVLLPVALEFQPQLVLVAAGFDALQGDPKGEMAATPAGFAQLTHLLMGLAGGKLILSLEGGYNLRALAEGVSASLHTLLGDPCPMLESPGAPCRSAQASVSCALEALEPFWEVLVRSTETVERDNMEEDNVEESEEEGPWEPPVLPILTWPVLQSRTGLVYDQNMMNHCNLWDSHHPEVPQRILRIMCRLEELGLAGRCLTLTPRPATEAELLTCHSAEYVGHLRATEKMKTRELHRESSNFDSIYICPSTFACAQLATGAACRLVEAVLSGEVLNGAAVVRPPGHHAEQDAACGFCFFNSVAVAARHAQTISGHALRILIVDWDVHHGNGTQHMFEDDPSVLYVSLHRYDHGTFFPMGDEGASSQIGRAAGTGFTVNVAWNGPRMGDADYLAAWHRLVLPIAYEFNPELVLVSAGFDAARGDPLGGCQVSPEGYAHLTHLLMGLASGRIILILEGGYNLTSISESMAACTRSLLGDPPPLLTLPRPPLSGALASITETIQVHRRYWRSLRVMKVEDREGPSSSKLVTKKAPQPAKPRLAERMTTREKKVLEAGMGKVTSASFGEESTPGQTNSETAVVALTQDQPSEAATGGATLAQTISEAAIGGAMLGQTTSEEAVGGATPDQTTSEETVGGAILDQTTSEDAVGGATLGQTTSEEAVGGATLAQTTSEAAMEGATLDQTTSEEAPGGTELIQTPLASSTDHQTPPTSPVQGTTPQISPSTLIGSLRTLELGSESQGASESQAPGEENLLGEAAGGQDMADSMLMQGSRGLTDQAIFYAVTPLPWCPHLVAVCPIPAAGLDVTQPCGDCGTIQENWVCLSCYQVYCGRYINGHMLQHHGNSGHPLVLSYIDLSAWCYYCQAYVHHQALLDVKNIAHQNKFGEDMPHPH

According to patent publication US12440484B2, “1,3,4-oxadiazole homophthalimide derivative compounds as histone deacetylase 6 inhibitor, and the pharmaceutical composition comprising the same” (Chong Kun Dang Pharmaceutical Corp., priority 2019, dated 2025):

Key:
HDAC1 = HDAC1 (Homo sapiens (Human), UniProt Q13547); assay: HDAC enzyme activity inhibition (in vitro), HDAC1 Fluorimetric Drug Discovery Assay Kit; assay type: biochemical; details: samples at 100, 1000 and 10000 nM; 37° C. 60 minutes; fluorescence Ex 390, Em 460
HDAC6 human recombinant = HDAC6 human recombinant (Homo sapiens (Human), UniProt Q9UBN7); assay: HDAC enzyme activity inhibition (in vitro), HDAC6 assay; assay type: biochemical; details: samples at 0.1, 1, 10, 100 and 1000 nM; 37° C. 60 minutes; fluorescence Ex 390, Em 460

Row | IC50 (HDAC1) | SMILES | IC50 (HDAC6 human recombinant)
1 | > 10 µM | CC1(C)C(=O)N(Cc2ccc(-c3nnc(C(F)F)o3)cn2)C(=O)c2ccc(N3CCN(C4CCCCC4)CC3)cc21 [Compound 46, 6-(4-cyclohexylpiperazine-1-yl)-2-((5-(5-(difluoromethyl)-1,3,4-oxadiazole-2-yl)pyridine-2-yl)methyl)-4,4-dimethylisoquinoline-1,3(2H,4H)-dione] | 0.121 µM
2 |  | CC1(C)C(=O)N(Cc2ccc(-c3nnc(C(F)F)o3)cn2)C(=O)c2ccc(N3CCC3)cc21 [Compound 28, 6-(azetidine-1-yl)-2-((5-(5-(difluoromethyl)-1,3,4-oxadiazole-2-yl)pyridine-2-yl)methyl)-4,4-dimethylisoquinoline-1,3(2H,4H)-dione] | 0.024 µM
